Experimental findings from patent US20020160916A1, “Agricultural formulation” (priority 2001, published 2002) are described below.

A short description of this data set: pH of the composition. Conditions: pH of the composition / salt on its own. In kind it is physicochemical.

On to Monoethanolamine salt of boric acid, for which the pH stood at 9.0.
